# Assay results as given in PubChem BioAssay AID624156 (Broad Institute, 2012).
# Only a part is listed here, and it is no random draw. Some salts and complexes are drawn in separate pieces, as the source files them; their charges need not balance. Active and inactive are the calls of the source. Cut-off read from the data, not from the text of the source: active = ROS induction above about 79% (passing the limit was not always enough); inconclusive = no clear call, values can overlap the other calls.
# Assay: ROS inducers in U2OS cancer cells, primary screen, cell-based, H2DCF-DA fluorescence (AID 624156);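 note: 0% = DMSO vehicle median and 100% = reference compound median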
# Details: at 10 µM, hits give high values
row,SMILES,ROS induction (% of piperlongumine)
1,Cc1cc(C)cc(OP(C)(=O)Nc2ccc(OC(C)C)cc2)c1 (centres undefined),inactive: -2.02%
2,C/C1=C2N=C(/C=C3N=C(/C(C)=C4\[N-][C@@](C)([C@@H]5N=C1[C@](C)(CCC(=O)NCC(C)OP(=O)(O)O[C@@H]1[C@H](O)[C@H](n6cnc7cc(C)c(C)cc76)O[C@H]1CO)[C@H]5CC(N)=O)[C@@](C)(CC(N)=O)[C@@H]4CCC(N)=O)[C@@](C)(CC(N)=O)[C@@H]\3CCC(N)=O)C(C)(C)[C@@H]/2CCC(N)=O.[C-]#N.[Co+3] (some centres undefined),inactive: -5.85%
3,CP(=O)(Nc1ccc(Cl)cc1)Oc1ccc(F)cc1 (centres undefined),inactive: -2.39%
4,COc1cc2c(cc1NP(C)(=O)Oc1ccccc1)oc1ccccc12 (centres undefined),inactive: 28.4%
